Screens deposited in PubChem BioAssay by National Center for Advancing Translational Sciences (NCATS).
Only some compounds are listed: those with a hit (about 2.5% of all), similar ones and a draw of the others.
TrxR1 inh – rat TrxR1 inhibition | O89049 | recombinant rTrxR1, NADPH fluorescence consumption, selenite substrate | Potency, µM (series often up to 114 µM), hits mostly inhibitors | actives 1% (n = 390,000) | AID 588453; note: nearly all actives have a fitted effect of over 65% in size
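Rat TrxR1 (90 nM in the dispensed reagent) was pre-reduced with 400 uM NADPH for 5 min at room temperature, then incubated with compound for 15 min. After 400 uM selenite was added, NADPH fluorescence (Ex 340/Em 450 nm) was followed for 8 min.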
miR-21 reporter – miR-21 reporter, rising signal. 340,000 tested, under 10 active. Potency, µM (highest dose often 38.3 µM). HeLa miR-21 FLuc reporter, luciferase, 48 h. AID 2288; active = well fitted rising curve with a large enough effect; inconclusive = small, poorly fitted or top-dose-only effect; inactive = no such curve, though single readings can be large or run the other way;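 further: miR-21 action dims this reporter so a rising signal means less miR-21 action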
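Luminescence from a firefly luciferase reporter carrying a miR-21 binding site downstream, stably expressed under a CMV promoter in HeLa cells that make miR-21 endogenously, reports miRNA modulation after 48 h compound exposure up to approximately 40uM final.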
Anesthetic bind – candidate novel general anesthetic via apoferritin binding; P02791; apoferritin/1-aminoanthracene competitive binding, fluorescence; Potency, µM (doses to about 77.5 µM), usual class: inhibitors; actives 0.074% (n = 350,000); AID 485281; note: nearly all actives have a fitted effect of over 20% in size
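Read-out: endpoint 1-AMA fluorescence, excitation 380 nm and emission 535 nm, after compounds sit 10 min at room temperature with 10 uM horse-spleen apoferritin in 50% saturated 1-AMA/PBS. Values come from four-parameter Hill fits.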
ClpP mod – qHTS Assay for Activators of ClpP. ATP-dependent Clp protease proteolytic subunit (Bacillus subtilis (strain 168)), P80244. purified B. subtilis ClpP, FRET peptide cleavage, 20 min. Potency, µM (doses to about 57.5 µM). actives 1.9% (n = 340,000). AID 651965, 2013; active = well fitted falling curve with a large enough effect; inconclusive = small, poorly fitted or top-dose-only effect; inactive = no such curve, though single readings can be large or run the other way; note: the source files actives as falling curves though it sought activators and does not explain the sign; nearly all actives have a fitted effect of over 65% in size
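Buffer: 100 mM Tris/HCl pH8, 100 mM KCl, 0.05% low protease BSA, 2.5% glycerol, 0.01% Tween-20. ClpP 10 microg/mL final; 20 min RT; delta FRET normalized to ADEP and DMSO controls.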
TrxR1 substrate – is turned over as a substrate by rat TrxR1. O89049. purified TrxR1 substrate turnover, NADPH consumption readout. Potency, µM (titrated, usually from 114 µM). actives 0.01% (n = 390,000). AID 588456; note: nearly all actives have a fitted effect of over 50% in size
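Rat TrxR1, dispensed at 90 nM, was prereduced with 400 uM NADPH (final) for 5 min at ~22 deg C, then incubated with compound 15 min before 400 uM selenite. A first-read NADPH fluorescence drop versus no-compound background flagged substrates.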
Numbers stand for hits; 0 = inactive; ? = inconclusive; - = not tested or not shown; [ ] = remark or other dose. Unless noted, calls come from the whole dose curve; as a rule, active = well fitted curve in the direction sought with a large enough effect; inconclusive = small, poorly fitted or top-dose-only effect, or another doubt; inactive = no such curve, though single readings can be large; an effect the other way counts as inactive or inconclusive.

SMILES	TrxR1 inh	miR-21 reporter	Anesthetic bind	ClpP mod	TrxR1 substrate
COc1cccc(CNC(=O)CCc2c(C)c3cc4c(C)coc4cc3oc2=O)c1	0	0	0	0	0
COc1cccc(N2CCN(C(=O)CN3C(=O)COc4ccc(S(=O)(=O)N5CCC(C)CC5)cc43)CC2)c1	0	0	?	0	0
COc1ccccc1C(CCN(Cc1cccs1)C(C)=O)c1ccco1 (configuration not stated)	45µM	0	?	0	0
CCC(=O)N(CCC(c1ccccc1)c1ccco1)Cc1cccs1 (configuration not stated)	0	0	?	0	0[11.4 µM]
CCc1cccc(NC(=O)CSC2=Nc3ccccc3N=C(c3ccc(F)cc3)C2)c1	0	0	0	0	0
CCc1ccccc1NC(=O)Cn1c(=O)nc(-c2ccccc2)c2ccccc21	0	0	0	0	0
CCOC(=O)c1cccnc1SCc1cc(=O)n2ccccc2n1	0	0	0	32µM	0
CC(OC(=O)c1cccnc1SCc1cc(=O)n2ccccc2n1)c1ccccn1 (configuration not stated)	0	0	0	0	0
Nc1cccc(/C=C/c2ccnc3ccccc23)c1	0	-	-	0	0
CCc1ccc(NC(=O)C2CCCN(S(=O)(=O)c3cccc4nsnc34)C2)cc1 (configuration not stated)	0	0	0	0	0
OC[C@H]1NC[C@H](O)[C@@H](O)[C@@H]1O	-	-	0	-	-
Cc1sc(NC(=O)CS(=O)(=O)c2ccccc2)c(C(N)=O)c1C	0	-	-	28µM	0
CCCN1CCN(C(c2cc3cc(OCC)ccc3[nH]c2=O)c2nnnn2C2CCCCC2)CC1 (configuration not stated)	0	0	0	28µM	0
COc1ccc2[nH]c(=O)c(C(c3nnnn3C3CCCCC3)N3CCN(C)CC3)cc2c1 (configuration not stated)	0	0	0	32µM	0
CCOc1ccc2[nH]c(=O)c(CN(CCO)C(c3nnnn3C3CCCCC3)C(C)C)cc2c1 (configuration not stated)	0	0	0	0	0
COc1ccc(C(c2nnnn2C2CCCCC2)N2CCN(C)CC2)c(OC)c1 (configuration not stated)	0	0	0	0	0
COc1ccc(C(NC(=O)/C=C/c2ccco2)c2ccc(OC)cc2)cc1	25µM	0	0	0	0
COc1ccc(C(NC(=O)/C=C\c2ccco2)c2ccc(OC)c(OC)c2)cc1 (configuration not stated)	8.9µM	0	?	0	0
COC(=O)c1ccccc1NC(=O)c1noc2c1CSc1ccccc1-2	14µM	0	0	0	0
COc1ccc(C)cc1NC(=O)c1noc2c1CSc1ccccc1-2	0	0	0	0	0
CC(NC(=O)C1=CC=CN2CCS(=O)(=O)N=C12)c1ccc(Cl)cc1Cl (configuration not stated)	0	-	-	25µM	0
CCCCOc1ccc(C(=O)Nc2ccc3c(c2)CCCN3S(=O)(=O)c2ccc(C)cc2)cc1	0	0	0	0	0
c1ccc(CC2CCN(c3nc4ccccc4n4nnnc34)CC2)cc1	0	0	0	16µM	0
CCN(Cc1ccc2c(c1)OCO2)C(=O)/C=C/c1cccc(Br)c1	0	0	0	-	0
CC(C)(C)N(Cc1ccc2c(c1)OCO2)C(=O)/C=C\S(=O)c1ccccc1 (configuration not stated)	79µM	-	-	0	0
SMILES	TrxR1 inh	miR-21 reporter	Anesthetic bind	ClpP mod	TrxR1 substrate
O=c1oc(-c2ccccc2)cc(Cl)c1Cl	5.6µM	?	0	0	0
O=c1cc(-c2ccccc2)oc2ccc(Cl)cc12	0[11.4 µM]	-	-	0	0
O=C(CCl)N=c1sccn1Cc1ccc(Cl)cc1Cl	32µM	?	?	-	0
CCC(=O)OCC(=O)N=c1sccn1Cc1ccccc1Cl	0	0	0	0	0
O=C(CCl)N=c1sccn1Cc1cccc2ccccc12	?	?	?	0	0
O=C(CCl)N=c1sccn1Cc1ccccc1Cl	25µM	?	0	-	0
CC(C)Oc1ccc(CNC(=O)CCn2c(=O)c3cccn3c3ccc(F)cc32)cc1	0	0	0	0	0[11.4 µM]
COc1cc2c(=O)c(S(=O)(=O)c3ccc(C)cc3)cn(Cc3cccc(C)c3)c2cc1OC	0	0	0	?	0
O=S(=O)(/C(=C\c1ccc(C(F)(F)F)cc1)c1nc2ccccc2[nH]1)c1ccccc1	4.5µM	-	-	-	0
O=C(NCc1ccco1)/C(=C/c1ccc(C(F)(F)F)cc1)c1nc2ccccc2[nH]1	?	0	0	0	0
C=C1C(=O)C2=CC1CCC(=O)C1(C)CCC(OC(C)=O)C(C)(C)C1CC2O (configuration not stated)	50µM	-	-	0	0
COc1ccc(OC)c(NC(=O)Cn2c(=O)c3cccn3c3ccccc32)c1	0	0	0	0	0
O=C(COc1ccc([N+](=O)[O-])cc1)N1CCC(c2nc3ccccc3s2)CC1	0	0	0	0	0
Cc1cc(C)n(-c2ccc(C(=O)OCn3nnc4ccccc4c3=O)cc2)n1	0	0	?	0	0
Cc1nn(-c2ccccc2)c2sc(C(=O)NCCN3CCOCC3)cc12	0	0	0	28µM	0
Cc1ccn(C(=O)c2cc3c(C)nn(-c4ccccc4)c3s2)n1	0	0	0	3.5µM	0
Cc1nn(-c2ccccc2)c2sc(C(=O)OCn3nnc4ccccc4c3=O)cc12	0	0	0	10µM	0
COc1ccc2oc(=O)cc(CN3CCN(C(=O)c4ccccc4F)CC3)c2c1	?	0	0	0	0
CCCn1cc(S(=O)(=O)c2cccc(Cl)c2)c(=O)c2cc(F)c(N3CCCC3)cc21	0	0	0	0	0
Cc1sc(-c2cc3ccccc3oc2=O)nc1-c1ccc(Cl)c(Cl)c1	0	0	0	0	0
Cc1sc(-c2cc3ccccc3oc2=O)nc1-c1ccc(Cl)cc1	0	0	0	32µM	0
O=C(CCC(=O)N1CCN(C2CCCCC2)CC1)Nc1nnc(C(F)(F)F)s1	0	0	0	13µM	0
CCCCc1nc(Cl)c(C#N)c2c1CSC(C)(C)C2	0	0	0	0	0
CCCCc1nc(NCCNC(=O)c2ccco2)c(C#N)c2c1CSC(C)(C)C2	50µM	0	0	25µM	0
CCCCc1nc(NCCNC(=O)c2ccccc2)c(C#N)c2c1CSC(C)(C)C2	0	0	0	28µM	0
Cc1cc(C)cc(NC(=O)Cn2cc(C(=O)c3ccncc3)c(=O)c3cc(C)c(C)cc32)c1	0	0	0	0	0
CCOc1ccc(S(=O)(=O)NCc2ccc3c(c2)CCN3C(=O)c2ccc(C)cc2)cc1	0	0	0	0	0
O=C(N/C(C(=O)N1CCOCC1)=C(\Sc1ncccn1)c1ccccc1)c1ccccc1	50µM	0	0	0	0
